Laboratory results reported in publication PMC3555145 (Biomacromolecules, 2012).

What was measured:
[1] = dynamic light scattering
Raw 264.7 and HeLa cells = details: MTT, ≤ 2 μg/well, 4 h serum-free then 20 h serum-containing medium, 37 °C, n = 3

| Substance | Cotton effect in CD spectrum (CD in water, scanning range 190–250 nm) | aggregation in aqueous solution [1] | β-sheet content (secondary structure) (CD in water, CDPro (CONTIN method), remainder significant portion of random coil) [%] | stability of β-sheet conformation against pH changes (–[θ]216) (CD, aqueous solution, pH 1 to pH 9) | cytotoxicity at low concentrations (Raw 264.7 and HeLa cells) |
| --- | --- | --- | --- | --- | --- |
| poly(ethylene glycol)-block-poly(O-pentenyl-L-serine-graft-cysteamine) [PEG112-b-(PPELS20-g-CA)] | no Cotton effect |  |  |  |  |
| poly(ethylene glycol)-block-poly(O-pentenyl-L-serine-graft-cysteamine) [PEG112-b-(PPELS70-g-CA)] |  | some degree of aggregation | 45 | remarkable stability against pH changes | unappreciable toxicity |
